The values below come from publication PMC12371494, “Discovery of YTHDF2 Ligands by Fragment-Based Design” (ACS Bio & Med Chem Au, 2025).

Amino acid sequences for entries named in this document (tags omitted). Residues count along the entry.
UniProt Q9Y5A9, whole entry: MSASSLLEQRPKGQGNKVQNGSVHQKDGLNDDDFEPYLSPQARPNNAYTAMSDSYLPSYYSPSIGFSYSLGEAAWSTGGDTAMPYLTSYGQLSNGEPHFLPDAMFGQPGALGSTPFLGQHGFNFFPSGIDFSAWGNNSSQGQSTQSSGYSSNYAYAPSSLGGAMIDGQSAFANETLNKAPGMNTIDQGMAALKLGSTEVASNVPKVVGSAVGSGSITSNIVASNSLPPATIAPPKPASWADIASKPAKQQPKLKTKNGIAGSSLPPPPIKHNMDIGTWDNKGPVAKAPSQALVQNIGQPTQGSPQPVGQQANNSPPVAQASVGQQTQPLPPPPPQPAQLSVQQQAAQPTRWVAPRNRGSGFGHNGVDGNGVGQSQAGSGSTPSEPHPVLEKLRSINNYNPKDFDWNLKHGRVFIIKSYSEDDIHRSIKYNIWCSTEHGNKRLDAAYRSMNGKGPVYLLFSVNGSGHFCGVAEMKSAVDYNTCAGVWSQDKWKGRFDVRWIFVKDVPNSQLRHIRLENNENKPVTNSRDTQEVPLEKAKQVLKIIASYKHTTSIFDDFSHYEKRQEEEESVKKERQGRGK
UniProt Q9H6S0, 1285-1424 limits assumed: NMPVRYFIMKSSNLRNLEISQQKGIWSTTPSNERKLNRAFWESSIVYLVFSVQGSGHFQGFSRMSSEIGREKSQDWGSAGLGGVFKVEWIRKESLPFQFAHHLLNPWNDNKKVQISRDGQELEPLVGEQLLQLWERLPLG
UniProt Q7Z739, whole entry: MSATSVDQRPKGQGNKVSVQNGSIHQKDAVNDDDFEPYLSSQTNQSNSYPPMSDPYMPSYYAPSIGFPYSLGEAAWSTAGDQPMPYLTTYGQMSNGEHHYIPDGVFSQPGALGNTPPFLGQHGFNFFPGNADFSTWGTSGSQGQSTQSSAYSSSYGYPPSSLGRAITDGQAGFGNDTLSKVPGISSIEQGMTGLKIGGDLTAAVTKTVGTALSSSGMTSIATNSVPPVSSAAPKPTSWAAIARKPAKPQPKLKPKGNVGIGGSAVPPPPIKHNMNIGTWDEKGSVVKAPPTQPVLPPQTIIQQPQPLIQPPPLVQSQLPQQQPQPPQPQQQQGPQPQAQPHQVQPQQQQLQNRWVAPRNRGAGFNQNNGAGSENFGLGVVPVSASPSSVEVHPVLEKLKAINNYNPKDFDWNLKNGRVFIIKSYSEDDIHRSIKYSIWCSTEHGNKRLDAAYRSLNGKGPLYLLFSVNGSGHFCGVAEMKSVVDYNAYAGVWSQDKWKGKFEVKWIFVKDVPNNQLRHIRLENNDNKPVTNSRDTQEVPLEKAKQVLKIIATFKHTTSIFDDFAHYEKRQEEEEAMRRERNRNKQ
UniProt Q9BYJ9, whole entry: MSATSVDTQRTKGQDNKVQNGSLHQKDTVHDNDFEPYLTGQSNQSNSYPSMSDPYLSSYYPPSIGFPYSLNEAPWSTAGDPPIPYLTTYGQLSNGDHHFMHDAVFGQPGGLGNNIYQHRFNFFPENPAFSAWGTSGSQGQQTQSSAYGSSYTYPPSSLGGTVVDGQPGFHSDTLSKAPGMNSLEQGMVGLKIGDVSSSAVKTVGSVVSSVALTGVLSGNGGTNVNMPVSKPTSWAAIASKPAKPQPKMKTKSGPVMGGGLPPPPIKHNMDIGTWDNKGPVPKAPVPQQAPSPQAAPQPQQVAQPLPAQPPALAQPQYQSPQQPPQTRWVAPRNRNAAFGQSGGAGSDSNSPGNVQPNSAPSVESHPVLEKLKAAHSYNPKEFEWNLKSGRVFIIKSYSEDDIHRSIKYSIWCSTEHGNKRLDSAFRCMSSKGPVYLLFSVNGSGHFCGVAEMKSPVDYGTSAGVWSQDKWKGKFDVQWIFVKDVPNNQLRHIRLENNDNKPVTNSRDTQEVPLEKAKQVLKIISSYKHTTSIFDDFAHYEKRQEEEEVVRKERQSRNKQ

The target in one experiment is GST-YTHDF2 (Homo sapiens, UniProt Q9Y5A9). The experiment in a line: HTRF-based binding assay, competition with m6A-oligoRNA, DF2. The conditions noted are these: for Residual signal at 1 mM concentration / Single-dose residual signal at 100 µM, DF2: HTRF; for Residual signal at 1 mM concentration: 1 mM compound, relative to control, average of two technical replicates, * = interference with the assay; for IC50: read-out: DF2 IC50 (HTRF assay), dose-response, competitor m6A-oligoRNA; for Single-dose residual signal at 100 µM, DF2: 100 µM compound, normalized.

The next experiment concerns the target YTHDC2 (Homo sapiens, UniProt Q9H6S0). Kind of experiment: DNA-fluorescence polarization (FP) competition assay, DC2. As to conditions: read-out: FP assay Kd DC2; Cheng-Prusoff from FP IC50, probe Kd 7 nM; two biological replicates.
The target in another experiment is GST-YTHDF3 (Homo sapiens, UniProt Q7Z739). Kind of experiment: HTRF-based binding assay, DF3. The conditions noted are these: 100 µM compound, normalized. Background: Time-resolved FRET reads energy transfer from a long-lived donor to a nearby acceptor.
Another experiment concerns the target YTHDF2 (Homo sapiens, UniProt Q9Y5A9). The experiment in a line: DNA-fluorescence polarization (FP) competition assay, DF2. The conditions noted are these: read-out: FP assay Kd DF2; Cheng-Prusoff from FP IC50, probe Kd 5 nM; two biological replicates. In general terms: Polarisation of emitted light reports the rotation of a fluorescent probe.
The next experiment deals with GST-YTHDF1 (Homo sapiens, UniProt Q9BYJ9). The experiment in a line: HTRF-based binding assay, DF1. The conditions noted are these: 100 µM compound, normalized.

Molecules are shown by their SMILES.

As a reminder, the IC50 is the concentration that inhibits the measured activity by half. On to `CNC(=O)c1cnc2[nH]c(C)nc2c1`, for which, on GST-YTHDF2, the “Residual signal at 1 mM concentration” value is on record as 27% and the half-maximal inhibitory concentration (IC50) came out at 540 µM.

In the case of `O=c1[nH]c(=S)[nH]c2ccccc12`, at GST-YTHDF2, the “Residual signal at 1 mM concentration” value turned out to be 16% and the half-inhibitory concentration (IC50) was determined as 610 µM.

For the compound `O=C(Nc1ccc2[nH]c(=S)[nH]c2c1)c1ccccc1`, on GST-YTHDF2, the “Residual signal at 1 mM concentration” value is reported as 53% and the IC50 is 410 µM.

For orientation: Kd means the free concentration of one partner at which half of the binding sites on the other are occupied at equilibrium, for simple one-to-one binding. Take `O=c1[nH]c(=S)[nH]c2sc(-c3ccccc3)cc12`: on YTHDC2, the Kd was determined as 34 µM. The “Single-dose residual signal at 100 µM, DF3” value at GST-YTHDF3 amounted to 25%. In addition, the dissociation constant Kd at YTHDF2 was determined as 8.1 µM. Further, at GST-YTHDF1, the “Single-dose residual signal at 100 µM, DF1” value was determined as 32%. For the same compound, on GST-YTHDF2, the “Single-dose residual signal at 100 µM, DF2” value was 11% and the IC50 is 40 µM.

On to `CC1(C)Cc2c(sc3[nH]c(=S)[nH]c(=O)c23)CO1`, for which, on GST-YTHDF2, the “Residual signal at 1 mM concentration” value was found to be 10% and the IC50 worked out at 14 µM. Besides, the “LE (ligand efficiency, DF2)” value at GST-YTHDF2 (LE = -RT ln IC50/HAC from HTRF IC50) is on record as 0.39 kcal/(mol HAC).

With `Cc1c(C(=O)NCCCC(=O)OC(C)(C)C)sc2[nH]c(=S)[nH]c(=O)c12`, the Kd on YTHDC2 is above 1000 µM. Also, the “Single-dose residual signal at 100 µM, DF3” value at GST-YTHDF3 is 20%. In addition, the “Single-dose residual signal at 100 µM, DF1” value at GST-YTHDF1 was determined as 18%. At GST-YTHDF2, the “Single-dose residual signal at 100 µM, DF2” value is given as 5% and the half-inhibitory concentration (IC50) was found to be 22 µM.
